Laboratory results as given in ChEMBL document CHEMBL3861941, “Discovery of 4,6-disubstituted pyrimidines as potent inhibitors of the heat shock factor 1 (HSF1) stress pathway and CDK9” (Medchemcomm, 2016).

Assay: Cytotoxicity against human U2OS cells assessed as growth inhibition after 96 hrs by SRB assay
Type: functional, cell-based

SMILES: CCc1cnn2c(NCc3ccc[n+]([O-])c3)cc(N3CCCC[C@H]3CCO)nc12 [DINACICLIB]
- IC50: 6 nM
